Earlier results, collected in patent US6898533B1, “Methods for predicting the biological, chemical, and physical properties of molecules from their spectral properties” (The United States of America as represented by the …, priority 2000, dated 2005).

Sequences of proteins named here, by UniProt entry; tags and fusion partners are left off.
UniProt Q62986, whole entry: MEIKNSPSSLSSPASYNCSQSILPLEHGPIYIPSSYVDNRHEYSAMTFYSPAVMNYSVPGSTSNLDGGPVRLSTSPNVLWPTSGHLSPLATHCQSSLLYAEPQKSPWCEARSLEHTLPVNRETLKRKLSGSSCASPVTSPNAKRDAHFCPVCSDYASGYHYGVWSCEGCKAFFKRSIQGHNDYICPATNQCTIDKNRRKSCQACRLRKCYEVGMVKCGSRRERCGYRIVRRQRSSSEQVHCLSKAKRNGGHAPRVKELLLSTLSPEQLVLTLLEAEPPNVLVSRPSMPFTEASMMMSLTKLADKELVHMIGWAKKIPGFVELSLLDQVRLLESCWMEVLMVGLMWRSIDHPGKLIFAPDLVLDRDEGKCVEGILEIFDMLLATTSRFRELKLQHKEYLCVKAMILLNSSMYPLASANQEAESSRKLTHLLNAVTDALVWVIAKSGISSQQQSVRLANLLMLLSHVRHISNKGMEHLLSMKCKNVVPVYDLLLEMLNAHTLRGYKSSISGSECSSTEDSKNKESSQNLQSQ

Target: beta (ERβ) estrogen receptor (Rattus norvegicus, UniProt Q62986)
Conditions: log of relative binding affinity, 17-β-estradiol RBA = 100; cited from earlier work

In the case of `COc1ccc2c(c1)CCC(c1ccccc1)=C2c1ccc(OCCN2CCCC2)cc1` [Nafoxidine], the “Log-(RBA) beta” value is given as 1.20.
